Results: published antibiotic growth screens (doi:10.1038/s41589-023-01349-8)
The other results are listed elsewhere or left out.

tested on: A. baumannii ATCC 17978; experiment: relative growth (fraction of control); higher = less inhibition; conditions: 50 µM

Compound | relative growth
C[C@]12C=CC(=O)C=C1CCC1C2[C@@H](O)C[C@@]2(C)C1CC[C@]2(O)C(=O)CO (some centres undefined) | 1
CC(=O)O[C@H]1C(=O)[C@@]2(C)[C@H]([C@H](OC(=O)c3ccccc3)[C@]3(O)C[C@H](OC(=O)[C@H](O)[C@@H](NC(=O)c4ccccc4)c4ccccc4)C(C)=C1C3(C)C)[C@]1(OC(C)=O)CO[C@@H]1C[C@@H]2O | 0.951
COc1cccc(OC)c1OCCNCCO | 1.01
O=C(C[C@@H]1C=C[C@@H](NS(=O)(=O)c2ccc(F)cc2)[C@@H](CO)O1)NCc1ccc(Cl)c(Cl)c1 | 0.829
Cc1ccc(CSc2nnc(CCN)o2)cc1 | 0.98
COC(=O)COc1nsnc1N1CCOCC1 | 1.1
O=C(NCCCN1CCCC1=O)c1cccnc1 | 1.09
CCCCCCCCc1cc(C)c(OC)c(CC)c1.CCCCCCCCc1ccc(OC)c(C)c1.CCCCCCCCc1ccc(OC)c(C)c1.CCOCCOCCOCCOCCOCCOCCOCCOCCOCCO | 1.1
O=C1O[C@@H](c2ccccc2)[C@@H](c2ccccc2)N2[C@@H](c3ccc(OCCO)cc3)[C@]3(C(=O)Nc4ccc(C#CC5=CCCCC5)cc43)[C@@H](C(=O)N3CCN(c4ncccn4)CC3)[C@H]12 | 0.993
CCCCCC(=O)O[C@]1(C(C)=O)CC[C@H]2[C@@H]3CCC4=CC(=O)CC[C@]4(C)[C@H]3CC[C@@]21C | 1.5
Cn1cnc(S(=O)(=O)N2C[C@H](O)COC[C@H]3O[C@@H](CC(=O)N4CCN(c5ccccc5)CC4)CC[C@@H]32)c1 | 0.967
O=C(C[C@H]1CC[C@H](NS(=O)(=O)c2ccccc2F)[C@@H](CO)O1)NCCCN1CCOCC1 | 1.06
O=C(O[C@@H]1Cc2c(O)cc(O)cc2O[C@@H]1c1ccc(O)c(O)c1)c1cc(O)c(O)c(O)c1 | 0.889
Cc1ccc(S(=O)(=O)N[C@@H](Cc2ccccc2)C(=O)NCCCn2cc(C(=O)NO)nn2)cc1 | 1.21
O=C(C[C@@H]1CC[C@@H]2[C@H](COC[C@@H](O)CN2Cc2cc(F)ccc2F)O1)N[C@@H]1CCN(Cc2ccccc2)C1 | 1.07
Cl.NC(=O)CC[C@H](N)C(=O)O | 1.08
C[C@@H]1CN([C@@H](C)CO)C(=O)c2cccc(NC(=O)Nc3cccc4ccccc34)c2O[C@H]1CN(C)S(=O)(=O)c1ccc2ncsc2c1 | 1.01
Cc1cc(C2(c3cc(C)c(N)c(C)c3)CCCCC2)cc(C)c1N | 0.849
O=C(O)C1CCN(c2ncccn2)CC1 | 0.921
CC(C)C[C@@H]1NC(=O)[C@H]2C[C@@H](C(=O)NCCCCCC[N+](C)(C)C)[C@@H](c3cccc(OCCO)c3)N2C1=O | 0.772
Cc1[nH]c(=O)[nH]c(=O)c1S(=O)(=O)N1CCC[C@H](C(=O)NCc2ccc3c(c2)OCO3)C1 | 0.919

Compound | relative growth
CC(=O)Nn1cc(C(=O)O)c2ccccc2c1=O | 0.901
NC(=O)CCN1CCn2c1nc1ccccc12 | 1.14
Cc1coc2c1C(=O)C(=O)c1c-2ccc2c1CCCC2(C)C | 1.09
CC(C)c1c(O)ccc2c1CCC1C(C)(C)C(=O)CC[C@]21C (some centres undefined) | 0.978
C=C1C=[N+]([O-])N(c2ccc(C(=O)O)cc2)N1 | 0.962
C1=C(c2ccccc2)CC(c2ccccc2)=NN=C1c1ccccc1 | 1.06
O=C(NCCN1CCOCC1)[C@]1(CCS(=O)(=O)c2ccccc2)N=C(c2ccc(OCCCO)cc2)O[C@@H]1c1ccccc1 | 0.803
COCC(=O)Nc1ccc2c(c1)OC[C@@H](C)N(Cc1ccccc1OC)C[C@H](C)[C@H](OC)CN(C)C2=O | 0.865
COc1ccc(S(=O)(=O)N(C)C[C@H]2Oc3c(NC(=O)Nc4cccc5ccccc45)cccc3C(=O)N([C@H](C)CO)C[C@@H]2C)cc1 | 0.96
c1ccc(NC2CCCCC2)nc1 | 0.921
Nc1nc(=O)[nH]cc1NC(=O)c1ccccc1 | 1.02
C[C@@H]1O[C@@H](OC[C@H]2O[C@@H](Oc3c(-c4ccc(OCCO)c(OCCO)c4)oc4cc(OCCO)cc(O)c4c3=O)[C@H](O)[C@@H](O)[C@@H]2O)[C@H](O)[C@H](O)[C@H]1O | 1.15
CC(=O)Oc1cc(C(C)C)c(OCCN(C)C)cc1C.Cl | 0.907
CCc1c(C)c2cc3c(-c4ccccc4)coc3cc2oc1=O | 1.23
CCN(CC)C(=O)/C(C#N)=C/c1cc(O)c(O)c([N+](=O)[O-])c1 | 0.884
O=c1cc(-c2cccc(O)c2)oc2ccc(O)cc12 | 0.897
CCCC#Cc1ccc2c(c1)O[C@@H](CN(C)Cc1ccc3c(c1)OCO3)[C@H](C)CN([C@@H](C)CO)S2(=O)=O | 1.14
O=C(CN1CCOCC1)NCC[C@@H]1CC[C@H](NC(=O)c2ccccc2F)[C@H](CO)O1 | 0.841
C[C@@H](NC(=O)C[C@H]1CC[C@@H](NC(=O)CN2CCOCC2)[C@H](CO)O1)c1ccccc1 | 1.13
COc1ccc(-c2noc(CSc3nc4sc(C)c(C)c4c(=O)n3-c3ccccc3)n2)cc1OC | 0.91
O=C(N[C@@H]1CC[C@H](CC(=O)N2CCOCC2)O[C@@H]1CO)c1ccccn1 | 1.06

Compound | relative growth
C[C@@H]1CN([C@H](C)CO)S(=O)(=O)c2ccc(C#CC(C)(C)O)cc2O[C@@H]1CN(C)Cc1ccc(F)cc1 | 0.801
COc1ccc([Si](C)(C)[C@@H]2[C@@H](CCO)O[C@]3(C(=O)N(Cc4cccc(N5C(=O)c6cccc7cccc5c67)c4)c4ccccc43)[C@H]2C)cc1 | 1.45
C[C@@]1(C2CC2)Cc2cnnn2CCN1 | 0.979
CC(C)[C@H]1CC[C@@H](C)C[C@@H]1NC(=O)c1cccc2ccccc12 | 1.21
O=C(C[C@@H]1CC[C@H](NC(=O)Cc2ccccn2)[C@H](CO)O1)NCCCN1CCOCC1 | 1.15
CC1=NCCC2c3ccc(O)cc3NC12 (centres undefined) | 1.19
C[C@@H]1CN([C@H](C)CO)C(=O)c2ccccc2-c2ccccc2CO[C@@H]1CN(C)S(=O)(=O)c1ccc(C(F)(F)F)cc1 | 0.898
CO[C@H]1CN(C)C(=O)c2cc(NS(=O)(=O)c3cn(C)cn3)ccc2OC[C@@H](C)N(CCC(F)(F)F)C[C@@H]1C | 1.18
Cc1cc(C)cc(OCC2CNC(=O)O2)c1 (centres undefined) | 0.988
COc1ccc(C(=O)O)c(O)c1OC | 1.21
O=C(O)[C@@H]1C(=CCO)O[C@H]2CC(=O)N12 | 1
CC[C@H]1OC(=O)C[C@@H](O)[C@H](C)[C@@H](O[C@@H]2O[C@H](C)[C@@H](O[C@H]3C[C@@](C)(O)[C@@H](O)[C@H](C)O3)[C@H](N(C)C)[C@H]2O)[C@@H](CC=O)C[C@@H](C)C(=O)/C=C/C(C)=C/[C@@H]1CO[C@@H]1O[C@H](C)[C@@H](O)[C@@H](OC)[C@H]1OC.O=C(O)[C@H](O)[C@@H](O)C(=O)O | 0.878
O=C(O)[C@H](O)[C@@H](O)[C@H](O[C@@H]1O[C@H](CO)[C@H](O)[C@H](O)[C@H]1O)[C@H](O)CO | 0.986
COCC#Cc1ccc2c(c1)O[C@H](CN(C)C(=O)CN(C)C)[C@@H](C)CN([C@H](C)CO)S2(=O)=O | 1.13
CC(C)CC#Cc1ccc2c(c1)O[C@@H](CN(C)C(=O)C1CCOCC1)[C@H](C)CN([C@@H](C)CO)S2(=O)=O | 0.826
O=C(N/N=C/[C@H](O)[C@@H](O)[C@@H](O)[C@H](O)CO)c1ccccn1 | 0.997
CO[C@@]1(NC(=O)CSCC#N)C(=O)N2C(C(=O)[O-])=C(CSc3nnnn3C)CSC21.[Na+] (some centres undefined) | 0.939
CCOC(=O)CNC(=O)c1cc(C)on1 | 1.11
O=C(CN1CCOCC1)N[C@H]1CC[C@@H](CCNS(=O)(=O)c2ccccc2F)O[C@@H]1CO | 1.04
c1cnc(N2CC[N+]3(CCCC3)CC2)nc1 | 1.18
O=c1c(-c2ccc(O)cc2)coc2cc(O)ccc12 | 1.03

Compound | relative growth
Oc1ccnc(S)n1 | 0.994
CCCCCCCCCCCCCCCC(=O)O[C@@H]1[C@@H](O)[C@@H](O)C([C@H](NC(=O)[C@@H]2C[C@@H](CCC)CN2C)[C@H](C)Cl)O[C@@H]1SC.Cl (some centres undefined) | 0.828
CC(=O)CCCCn1c(=O)c2c(ncn2C)n(C)c1=O | 1.14
O=C(C[C@H]1C[C@H]2c3cc(NS(=O)(=O)c4ccc(F)cc4)ccc3O[C@H]2[C@H](CO)O1)NCc1ccccc1F | 1.08
COc1cccc(C#Cc2ccc3c(c2)O[C@H](CN(C)C(=O)CN2CCOCC2)[C@H](C)CN([C@@H](C)CO)S3(=O)=O)c1 | 0.9
COc1ccc(C(=O)NCC#N)cc1 | 0.967
CN1C(=O)OC(C)(C)C1=O | 0.554
COCC#Cc1ccc2c(c1)O[C@@H](CN(C)S(C)(=O)=O)[C@@H](C)CN([C@H](C)CO)S2(=O)=O | 1
O=C(CO)C(O)C(O)C(O)CO (centres undefined) | 0.999
Cc1[nH]c(=O)n(C(C)(C)C)c(=O)c1C | 0.992
Cc1occc1C(=O)NNC(=O)C1CC1 | 0.887
COc1ccc(S(=O)(=O)N[C@@H]2CC[C@H](CCNC(=O)CN3CCOCC3)O[C@@H]2CO)cc1 | 1.21
COC(=O)c1ccc2c(c1)no[n+]2[O-] | 1.03
O=C(C[C@H]1C[C@@H]2c3cc(NS(=O)(=O)c4ccc(F)cc4)ccc3O[C@@H]2[C@H](CO)O1)NCc1cccc(F)c1 | 1
O=C(NCCN1CCNCC1)c1ccccn1 | 1.01
NNC(=O)CNC(=O)[C@H]1COc2ccccc2O1 | 1.05
CN1CCN(C(=O)C[C@H]2CC[C@H]3[C@@H](COC[C@@H](O)CN3S(=O)(=O)c3cccc(Cl)c3)O2)CC1 | 0.97
Cc1ccc(S(=O)(=O)N[C@@H]2CC[C@H](CCNC(=O)CN3CCOCC3)O[C@H]2CO)cc1 | 1.13
C=c1cc(C)cc(C)c1=C1NN=C(N)S1 | 1.12
O=C(O)c1ccc(CNc2cn[nH]c(=O)n2)cc1 | 1.01
Cc1cccn2c(=O)c(-c3nnn[n-]3)cnc12.[K+] | 1.29
